Measured values as given in PMC9865040, “Design of A3B-Porphyrin Conjugates with Terpyridine as Potential Theranostic Agents: Synthesis, Complexation with Fe(III), Gd(III), and Photodynamic Activity” (Pharmaceutics, 2023).

Assay: Aggregation behaviour, UV-vis absorption and fluorescence spectra in DMF and aqueous solubiliser solutions
Format: physicochemical
Protocol: Aggregation behavior, photophysical characterization and solubilisation studies. Photophysical properties of zinc complexes of amphiphilic meso-arylporphyrins and their conjugates with terpyridine were studied in DMF and aqueous solutions of different solubilisers. Stock solutions of 1 mM of the studied compounds in DMF were added upon stirring to a micellar aqueous solution of a solubiliser (3 mL). The final concentration of the porphyrins was 3.5 µM. UV-vis absorption spectra were recorded using HACH DR-4000V spectrophotometer (Hach-Lange, Loveland, CO, USA) within the wavelength range of 320–800 nm with a step of 1 nm in quartz cells (10 mm) at room temperature. Steady-state fluorescence spectra were recorded using Perkin Elmer LS-50 (USA) luminescent spectrometer under similar conditions with the Soret band maximum excitation. Fluorescence quantum yields (ΦF) for Zn(II) complexes in DMF were measured according to the procedure using ZnTPP as a standard (ΦF = 0.033).

CCCCCCOc1ccc(-c2c3nc(c(-c4ccc(OCCCCCC)cc4)c4ccc([n-]4)c(-c4ccc(OCc5ccc(-c6cc(-c7ccccn7)nc(-c7ccccn7)c6)cc5)cc4)c4nc(c(-c5ccc(OCCCCCC)cc5)c5ccc2[n-]5)C=C4)C=C3)cc1.[Zn+2] [compound 12]
λem, first band (Brij-58 (0.5 mM)): 615 nm | λmax (Brij-58 (0.5 mM)): 428 | λem, first band (Cremophor (1% Cremophor EL)): 614 nm | λQ (second Q band) (DMF): 602 nm | λem, first band (DMSO): 614 nm | λem, second band (DMSO): 664 nm | λmax (DMSO): 428 | lgε (H2O): 5.17 | λem, first band (H2O): 614 nm | λmax (H2O): 433 | λem, first band (Pluronic (1% Pluronic F-127)): 617 nm | λmax (Pluronic (1% Pluronic F-127)): 428 | I1/I2 (emission band intensity ratio) (TX-100 (1 mM)): 1.83 | λem, first band (TX-100 (1 mM)): 612 nm | λem, second band (TX-100 (1 mM)): 663 nm | λmax (TX-100 (1 mM)): 428 | λem, first band (Tween-80 (0.5 mM)): 612 nm | λem, second band (Tween-80 (0.5 mM)): 662 nm | λmax (Tween-80 (0.5 mM)): 428
